Data reported in patent US20200345268A1, “ISOTOPIC BIOMARKERS OF ORGANIC ACIDEMIAS” (The United States of America, as represented by the …, priority 2017, published 2020).

Tested on: Mut^−/−; Tg^INS-MCK-Mut mice
Assay: In vivo stable isotope oxidation studies (13CO2 enrichment in respiratory chambers after IP tracer)
Details: N=5, time-point 30′
Procedure: To further assess transgene function, the in vivo oxidative capacity of Mut^−/−; Tg^INS-MCK-Mut mice was measured through detecting metabolism of numerous 1-^13C labeled fatty acids to ^13CO2 via the Kreb's Cycle.
The in vivo effects of hepatic Mut deficiency were also assessed by measuring the oxidation of 1-^13C-methionine (FIG. 1I) and 1-^13C-glycine (FIG. 1J). These labels reflect hepatic mitochondrial function and the activity of the glycine cleavage system, both known to be impaired in MMA patients.
In Vivo Stable Isotope Oxidation Studies: Stable isotope studies were performed in 4 Mut−/−; Tg^INS-MCK-Mut and 4 control littermates. […] Aliquots of air were removed every 5-10 min, while CO2 was continuously monitored. ^13CO2 enrichment was measured by isotope ratio mass spectroscopy (Metabolic Solutions, Nashua, N.H.). […] Cumulative percentage of total isotopomer dose metabolized was subsequently calculated, using the formula: Percentage of dose metabolized=total ^13C excreted [mmol/dose (mmol)×100%]. […]
These studies were conducted using N=5 mice with MMA (Mut^−/−; Tg^INS-MCK-Mut mutants) and N=5 sex matched littermates (controls). Each mouse was injected with the labels depicted in Table 3 and the oxidation rates and kinetics of ^13C/^12C CO2 enrichment were analyzed.

With Sodium 1-^13C-Octanoate the “Cumulative % of total dose metabolized, Mutants, mean (SD)” value (Mut^−/−;Tg^INS-MCK-Mut mutants) was 44.71 (8.58) % and the “Cumulative % of total dose metabolized, Controls, mean (SD)” value (sex matched littermate controls) was 31.94 (11.58) %.
